# Antibody variant affinities, Ab-14 heavy chain, assay 1

Binding partner: SARS-CoV-2 spike HR2 peptide, sequence PDVDLGDISGINAS.

The variants keep the light chain, the linker and the frameworks of Ab-14 (scFv order VH, a (GGGGS)3 linker, VL).
VH: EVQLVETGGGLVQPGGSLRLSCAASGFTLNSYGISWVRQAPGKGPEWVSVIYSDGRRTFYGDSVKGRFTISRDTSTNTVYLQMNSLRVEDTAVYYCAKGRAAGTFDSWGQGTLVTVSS
VL: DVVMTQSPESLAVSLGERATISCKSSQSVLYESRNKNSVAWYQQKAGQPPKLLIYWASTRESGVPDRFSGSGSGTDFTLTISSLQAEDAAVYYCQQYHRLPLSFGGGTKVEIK

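The starting antibody came from a phage panning campaign against this peptide. In library AAYL49, one, two or three CDR residues were substituted; doubles and triples were drawn at random. AlphaSeq pools MATa yeast showing the antibodies with MATalpha yeast showing the peptide. Binding brings cells together so that they mate, and sequencing counts the barcode pairs among the diploids. Scores were corrected for input abundance and mapped to Kd with protein pairs of known affinity run in the same pool. Mating was done three times.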

Changes read parent residue, position, new residue, counted from the first residue of the VH shown.
Every variant below is changed at A101 of the VH (sequential numbering).
Affinities are written as log10 Kd with Kd in nM; a lower number is a better binder.
A pair that was not seen in that replicate is written "nd"; this usually means weak binding, but a binder can also be missed.

- F59A A101Y = nd, nd, nd
- V64F K65H A101G = nd, nd, nd
- N30V A101K = nd, nd, nd
- T28S A101I G103N = nd, nd, 4.73
- I51H D54E A101N = nd, nd, nd
- S53R A101H D106E = nd, nd, nd
- D62E A101T S107L = 2.22, 2.49, 2.07
- I51V S63V A101K = nd, nd, nd
- D54I T58F A101Y = nd, nd, nd
- S31Y A101T T104L = 2.26, 2.22, 2.25
- Y32M S63R A101W = 1.62, 2.07, 2.00
- T28W V64I A101D = nd, nd, nd
- Y60W A101K F105V = 3.59, nd, nd
- G26W V50S A101T = nd, 3.69, nd
- R56S A101D D106C = nd, nd, nd
- A101Q S107V = 0.47, 0.79, 0.73
- S35M A101F S107Q = nd, nd, nd
- T58R A101P = 4.56, 3.91, nd
- R57H Y60S A101H = nd, nd, nd
- S31E A101L S107L = -0.22, 0.16, -0.10
- S63Y A101Y = 2.79, 3.18, 2.45
- R100I A101G = 0.67, 1.08, 1.17
- I51Y Y60M A101E = 3.59, 4.91, nd
- Y32T V50W A101D = nd, nd, nd
- S53A S63C A101L = 1.47, 1.65, 1.61
- I34T G55E A101T = nd, nd, 4.67
- G99Q A101S F105Y = nd, nd, nd
- I34A A101F A102K = nd, nd, nd
- S35F K65L A101K = nd, nd, nd
- G33D D62P A101E = nd, nd, nd
- R57H G99A A101N = nd, nd, nd
- R57G A101V A102K = nd, nd, nd
- D62H A101D = 1.58, 1.83, 1.47

The 2 strongest on average among those seen in every replicate, once more:

* S31E A101L S107L = -0.22, 0.16, -0.10
* A101Q S107V = 0.47, 0.79, 0.73

In this assay the parent's reference entry averaged 0.65; its copy inside this library read 4.11 (one replicate of three).
Three control strains display no target. For library AAYL49, 15% of the pairings with them gave a signal, with a median of 4.06 and one signal in twenty below 2.83, so weak values seen in few replicates may be background.

Data: MIT Lincoln Laboratory AlphaSeq set, Engelhart et al. 2022, doi:10.1038/s41597-022-01779-4, as distributed in FLAb.